Only a part is listed here, and it is no random draw. The source made the active and inactive calls.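 How the source made its calls: active means mean added fluorescence quench of at least 8% versus neutral control, with both replicates also reaching 8%; inconclusive means only one of the mean or replicate conditions met; inactive means mean below 8% and not both replicates reaching 8%.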

A short description of the assay: F508del CFTR correction, initial screen, CFBE line, single point (AID 720511).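 Further: cells transiently co-express mutant CFTR-F508del with the halide-sensitive YFP; corrector assay measuring rescue of mutant channel to the surface after 24 h compound exposure.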 The settings on record: CFBE cells, YFP halide quenching, at 7.58 µM, active compounds read high, % fluorescence drop versus neutral controls, stimulated with forskolin plus potentiator P3.
Regarding `CCC(=O)N(c1ccccc1)C1(COC)CCN(CCc2cccs2)CC1`, the activity (quench increase) is inactive: -0.244%.

Regarding `CCC(=O)N(c1ccccc1)C1(COC)CCN(CCn2nnn(CC)c2=O)CC1`, the activity (quench increase) was inactive: -0.513%.

The values are drawn from PubChem BioAssay AID720511 (Broad Institute, 2013).
